Screens from PubChem.
Most compounds without a hit are left out; they make up all but 0.91% or so of the library.
C2C12 statin = suppressors of statin myotoxicity in C2C12 myotubes, primary screen, cell-based, single point, plate reader | C2C12 myotubes + simvastatin, ATP luminescence, 48 h; scaled: DMSO 0, geranylgeraniol control 100 | rescue of ATP level, % at 7.49 µM | 330,000 tested, 0.78% active | AID 602340, 2012;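 active means mean ATP rescue above about 67%, or every replicate alone reaching that limit, limit read from the data, passing the limit was not always enough; inconclusive means no clear call, values can overlap the other calls; inactive means mean under the limit and some replicate under it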;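 further: myotubes were challenged with 10 µM simvastatin during compound exposure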
FN deposit inh = inhibitors of fibronectin matrix deposition, primary screen, AH1F cells, Alexa488-fibronectin fluorescence, plate reader. AH1F fibroblasts, overnight. inhibition, % at 12.6 µM. 350,000 tested, 0.086% active;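 active means mean inhibition across replicates of 30% or more, regardless of how many single replicates reach that level; inconclusive means mean under 30% yet at least half of replicates reach 30%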
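Assay system: AH1F fibroblast monolayer, labelled fibronectin deposition. Amount: 10000 cells per well. Also added: labelled fibronectin 24 nM. Compound: single-point pinned compound. Incubation: cell attachment 1 h, compound and FN exposure overnight. Detection: fluorescence after three HBSS washes, excitation 485 nm, emission 525 nm. Read-out: inhibition of fibronectin deposition signal.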
Yeast UUG start = modulators of yeast start codon fidelity, primary screen, whole organism, S. cerevisiae, single point, plate reader | AID 602363, 2012 | S. cerevisiae UUG-firefly luciferase reporter, luminescence/redox ratio | activity score, % at 18.7 µM | hit rate 0.13% among 350,000;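 active = replicate mean at a twofold rise or more, about +100% in these data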;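 also: firefly luciferase made from a UUG start codon reports start codon fidelity; reporter light over untreated wells divided by growth signal over untreated wells; some hits fall short of that in this replicate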
iPSC survival up = enhancers of single-cell hiPSC survival, primary screen, ATPlite luminescence. 100% = ROCK inhibitor wells, 0% = DMSO. survival enhancement, % at 20 µM. 360,000 tested, 0.044% active. AID 602274, 2012; in the data active means survival enhancement above about 18%;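 further: cells exposed to compounds for 16 hours before the ATP read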
PGC1a acetyl inh = inhibitors of PGC1a acetylation signal, primary screen, cell-based, U2OS, AlphaScreen, inhibitor mode; AlphaScreen anti-acetyl-lysine; with virally co-expressed GCN5 acetyltransferase; inhibition, % at 15.6 µM; 350,000 tested, 0.17% active; AID 651687, 2012;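 active means every replicate shows inhibition of at least 40%; inconclusive means mean inhibition at least 40% but some replicate below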
Large screens that a line does not name were inactive.

Cc1noc(C)c1NC(=O)Nc1ccc2c(c1)C(=O)N([C@@H](C)CO)C[C@@H](C)[C@@H](CN(C)Cc1ccncc1)O2	none (no result: FN deposit inh, iPSC survival up)
O=C(O)C[C@@H]1C[C@@H]2c3cc(NC(=O)Nc4ccc(C(F)(F)F)cc4)ccc3O[C@@H]2[C@H](CO)O1	none (no result: Yeast UUG start, iPSC survival up)
Cc1ccc(S(=O)(=O)N(C)C[C@@H]2OCc3ccccc3-c3c(n(C)c4ccccc34)C(=O)N([C@@H](C)CO)C[C@H]2C)cc1	none (no result: C2C12 statin, iPSC survival up)
CC(C)CC#Cc1ccc([C@@H]2[C@H](CO)N3C(=O)CN(S(=O)(=O)c4cccc(F)c4)C[C@@H]23)cc1	none (no result: C2C12 statin, Yeast UUG start, iPSC survival up)
CC(C)(C)[S@@](=O)N1Cc2cc(C(=O)NCc3ccccc3F)nc(-c3cccc(-c4cncnc4)c3)c2[C@H]1CCO	FN deposit inh 31 (no result: Yeast UUG start, iPSC survival up)
CSc1nsc(SCC(=O)N2CCCc3ccccc32)n1	C2C12 statin 92 (no result: FN deposit inh)
COc1ccc(NC(=O)N(C)C[C@@H]2OCc3ccccc3-c3ccccc3C(=O)N([C@@H](C)CO)C[C@@H]2C)c(OC)c1	none (no result: C2C12 statin, iPSC survival up)
O=C(CCCc1nc(-c2ccccc2)no1)Nc1cccnc1	C2C12 statin 86
O=C(CN1CCCC1)Nc1ccc(Oc2ccc(NC(=O)CN3CCCC3)cc2)cc1	FN deposit inh 30 (no result: C2C12 statin)
Cc1noc(C)c1S(=O)(=O)Nc1ccc2c(c1)CC(=O)N([C@H](C)CO)C[C@@H](C)[C@@H](CN(C)Cc1ccc(C(F)(F)F)cc1)O2	C2C12 statin 83 (no result: FN deposit inh, iPSC survival up)
Cc1noc(C)c1S(=O)(=O)Nc1ccc2c(c1)CC(=O)N([C@H](C)CO)C[C@@H](C)[C@H](CN(C)Cc1ccc(-c3ccccc3)cc1)O2	C2C12 statin 111 (no result: FN deposit inh, Yeast UUG start, iPSC survival up)
Cc1noc(C)c1S(=O)(=O)Nc1ccc2c(c1)CC(=O)N([C@@H](C)CO)C[C@H](C)[C@@H](CN(C)Cc1ccc(Cl)c(Cl)c1)O2	C2C12 statin 79 (no result: iPSC survival up)
Cc1noc(C)c1S(=O)(=O)Nc1ccc2c(c1)CC(=O)N([C@H](C)CO)C[C@H](C)[C@@H](CN(C)Cc1ccc(Cl)c(Cl)c1)O2	C2C12 statin 134 (no result: iPSC survival up)
Cc1noc(C)c1S(=O)(=O)Nc1ccc2c(c1)CC(=O)N([C@@H](C)CO)C[C@@H](C)[C@H](CN(C)Cc1ccc(Cl)c(Cl)c1)O2	none (no result: iPSC survival up)
O=C(C[C@@H]1C=C[C@@H](NC(=O)c2ccccc2)[C@H](CO)O1)NCc1ccc(Oc2ccccc2)cc1	none (no result: Yeast UUG start, iPSC survival up)
COc1ccc(-c2cn(CC[C@H]3CC[C@H](NC(=O)c4cnccn4)[C@@H](CO)O3)nn2)cc1	none (no result: iPSC survival up)
CCCNS(=O)(=O)c1ccc(CCC(=O)NCc2ccc3c(c2)OCO3)cc1	none (no result: C2C12 statin, FN deposit inh)
O=C(CCNS(=O)(=O)c1ccc(Br)cc1)NCc1ccc2c(c1)OCO2	C2C12 statin 152
CCCNC(=O)CC(NS(=O)(=O)c1ccc(OC)cc1)c1ccco1 (stereo unspecified)	none (no result: C2C12 statin, Yeast UUG start)
COc1ccc(S(=O)(=O)NC(CC(=O)NCc2ccc3c(c2)OCO3)c2ccco2)cc1 (stereo unspecified)	C2C12 statin 117 (no result: FN deposit inh)
Cc1ccc(-c2cc(-c3ccccc3)no2)c(O)c1	none (no result: C2C12 statin)
Oc1ccccc1-c1cc(-c2ccccc2)no1	C2C12 statin 94 (no result: FN deposit inh)
CCCc1nc(SCC(=O)Nc2nc3c(s2)CCCC3)c2ccccc2n1	iPSC survival up 22 (no result: FN deposit inh)
CCc1nc(SCC(=O)Nc2nc3c(s2)CCCC3)c2ccccc2n1	none (no result: FN deposit inh)
COC(=O)C[C@@H]1CC[C@@H]2[C@H](COc3ccc(NC(=O)C4CC4)cc3C(=O)N2C)O1	none (no result: iPSC survival up)
COc1ccc(S(=O)(=O)N(C)C[C@H]2Oc3ccc(NC(=O)Nc4ccccc4)cc3C(=O)N([C@@H](C)CO)C[C@@H]2C)cc1	none (no result: FN deposit inh, iPSC survival up)
CC(C(=O)NCC1CCCO1)n1cccc1C(=O)c1ccccc1 (stereo unspecified)	C2C12 statin 107 (no result: FN deposit inh)
CC(C(=O)NCc1ccc(Cl)cc1)n1cccc1C(=O)c1ccccc1 (stereo unspecified)	none
COc1ccccc1CNC(=O)C[C@@H]1C[C@@H]2c3cc(NC(=O)NC4CCCC4)ccc3O[C@@H]2[C@H](CO)O1	none (no result: iPSC survival up)
Cc1nnc(N2C(=O)C(O)=C(C(=O)c3ccco3)C2c2ccc(C(C)(C)C)cc2)s1 (stereo unspecified)	C2C12 statin 117 (no result: FN deposit inh)
Cc1nnc(N2C(=O)C(O)=C(C(=O)c3ccco3)C2c2ccc(F)cc2)s1 (stereo unspecified)	none
O=C1NNC(=O)C1c1ccccc1	none
O=C1C(c2ccccc2)C(c2ccccc2)NC(c2ccccc2)C1c1ccccc1 (stereo unspecified)	C2C12 statin 111
CCOc1cccc(C(=O)Nc2ccc(N(CC)CC)cc2)c1	FN deposit inh 30
CCS(=O)(=O)N1CCN(c2ccc([N+](=O)[O-])c(NCc3ccccc3)c2)CC1	Yeast UUG start 240 (no result: FN deposit inh)
C[C@@H]1CCCCO[C@@H](CN(C)Cc2ccc(Cl)c(Cl)c2)[C@H](C)CN([C@@H](C)CO)C(=O)c2cc(NS(=O)(=O)c3ccccc3)ccc2O1	none (no result: C2C12 statin, FN deposit inh, iPSC survival up)
CCS(=O)(=O)c1ccc(O)c(NC(=O)COc2ccc(Br)cc2)c1	PGC1a acetyl inh 97 (no result: Yeast UUG start)
C[C@H]1CN([C@@H](C)CO)C(=O)Cc2cc(NC(=O)Cn3cnnn3)ccc2O[C@@H]1CN(C)S(=O)(=O)c1cccs1	none (no result: FN deposit inh, iPSC survival up)
Cc1ccc(S(=O)(=O)Nc2ccc3c(c2)CC(=O)N([C@@H](C)CO)C[C@@H](C)[C@@H](CN(C)Cc2ccc(C(=O)Nc4ccccc4N)cc2)O3)cc1	none (no result: iPSC survival up)
O=C1OC(c2ccccc2)c2ccccc21 (stereo unspecified)	none (no result: C2C12 statin, Yeast UUG start, PGC1a acetyl inh)
Cc1ccc(C2OC(=O)c3ccccc32)cc1 (stereo unspecified)	C2C12 statin 133 (no result: FN deposit inh)
CCCN1C[C@@H](C)[C@@H](OC)CN(C)C(=O)c2cc(NS(=O)(=O)CC)ccc2OC[C@H]1C	none (no result: iPSC survival up)
O=S(=O)(Nc1cccc2cccnc12)c1ccc(S(=O)(=O)N2CCCC2)cc1	C2C12 statin 70 (no result: FN deposit inh)
Cc1ccc(S(=O)(=O)Nc2cccc3cccnc23)c([N+](=O)[O-])c1	C2C12 statin inconclusive, FN deposit inh 34 (no result: PGC1a acetyl inh)
O=C(O)CC(c1ccccc1)n1cccc1 (stereo unspecified)	C2C12 statin 115
O=C1CC(SC(=Nc2ccccc2)Nc2ccccc2)C(=O)N1c1cccc2ccccc12 (stereo unspecified)	C2C12 statin 120 (no result: FN deposit inh)
O=C(O)c1ccc(N2C(=O)CC(SC(=Nc3ccccc3)Nc3ccccc3)C2=O)cc1 (stereo unspecified)	none (no result: C2C12 statin, Yeast UUG start, PGC1a acetyl inh)
O=C(C[C@@H]1CC[C@@H]2[C@H](COC[C@@H](O)CN2Cc2cccc(-c3ccncc3)c2)O1)N1CCCCC1	none (no result: iPSC survival up)
CCSc1nnc(SCC(=O)NC2CCCCC2)s1	none
Cc1cc(=O)[nH]c(SCC(=O)NC2CCCCCCC2)n1	none
Cc1cc(=O)[nH]c(SCC(=O)NC2CCCCCC2)n1	C2C12 statin 72
